Source: PubChem BioAssay AID2094 (Broad Institute, 2009)
In all, about 300,000 compounds went through this assay and about 1,200 (0.4%) were called active. Listed are the inconclusive results; actives and inactives stand elsewhere. Rule as the data show it: active = activity change below about -75% (passing the limit was not always enough); inconclusive = no clear call, values can overlap the other calls.

Test: modulation of AI-2 quorum-sensing luminescence – JMH597 strain, luminescence/OD600 ratio, primary screen (AID 2094);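 also: luminescence divided by OD600 gain over 9 h not by final OD600 alone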
Settings: Vibrio harveyi JMH597 AI-2 luminescence/OD600 ratio, 9 h; at 7.5 µM; stronger effect = lower value; 0 = neutral-control median; strain lacks LuxN and CqsS sensors

SMILES	activity change
O=[N+]([O-])c1ccc(O)c(/C=N/Nc2ccc([N+](=O)[O-])cc2[N+](=O)[O-])c1	inconclusive: -38.9%
